Source: ChEMBL document CHEMBL3272356, “Adriamycin analogs. Periodate oxidation of adriamycin” (J Med Chem, 1976)

Test: Dissociation constant, pKa of the compound

COc1cccc2c1C(=O)c1c(O)c3c(c(O)c1C2=O)C[C@@](O)(C(=O)CO)C[C@@H]3O[C@H]1C[C@H](N)[C@H](O)[C@H](C)O1 [DOXORUBICIN]
pKa: 8.22
